Results: ChEMBL document CHEMBL1201862, “PubChem BioAssay data set” (2004)
Values joined by “and” are separate entries in the source; they are usually repeats but may differ in a detail not shown here. Identical values can stand only once. One block for each compound: values may come before it. Active and inactive are the calls of the source.

Chains of the proteins cited; added tags and fusions are not shown. Lines headed by an entry give the natural chain unless they say otherwise; changes in a name come on top.
UniProt P98170, whole entry: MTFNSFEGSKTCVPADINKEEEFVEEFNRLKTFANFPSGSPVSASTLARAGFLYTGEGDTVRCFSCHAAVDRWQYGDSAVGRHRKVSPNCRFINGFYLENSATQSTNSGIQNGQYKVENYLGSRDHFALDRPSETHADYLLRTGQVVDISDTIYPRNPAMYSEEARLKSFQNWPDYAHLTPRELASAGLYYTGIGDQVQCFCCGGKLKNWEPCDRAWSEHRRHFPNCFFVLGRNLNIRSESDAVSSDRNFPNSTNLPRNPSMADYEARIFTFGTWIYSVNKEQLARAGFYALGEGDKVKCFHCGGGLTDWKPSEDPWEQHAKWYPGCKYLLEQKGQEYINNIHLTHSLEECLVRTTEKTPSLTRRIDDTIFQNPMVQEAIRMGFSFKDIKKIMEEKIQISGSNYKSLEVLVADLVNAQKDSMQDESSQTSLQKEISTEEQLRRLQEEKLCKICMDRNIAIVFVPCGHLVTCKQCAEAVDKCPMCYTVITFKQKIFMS
UniProt Q9Y2T6: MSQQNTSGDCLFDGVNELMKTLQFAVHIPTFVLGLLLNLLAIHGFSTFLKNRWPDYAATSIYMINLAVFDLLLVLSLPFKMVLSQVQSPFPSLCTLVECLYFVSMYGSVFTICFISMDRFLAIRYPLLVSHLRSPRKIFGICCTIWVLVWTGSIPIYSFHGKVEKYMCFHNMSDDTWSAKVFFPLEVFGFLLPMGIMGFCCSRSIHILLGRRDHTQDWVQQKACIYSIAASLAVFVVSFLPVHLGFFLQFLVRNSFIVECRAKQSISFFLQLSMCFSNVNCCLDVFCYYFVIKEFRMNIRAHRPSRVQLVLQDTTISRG
UniProt Q932Y6, whole entry: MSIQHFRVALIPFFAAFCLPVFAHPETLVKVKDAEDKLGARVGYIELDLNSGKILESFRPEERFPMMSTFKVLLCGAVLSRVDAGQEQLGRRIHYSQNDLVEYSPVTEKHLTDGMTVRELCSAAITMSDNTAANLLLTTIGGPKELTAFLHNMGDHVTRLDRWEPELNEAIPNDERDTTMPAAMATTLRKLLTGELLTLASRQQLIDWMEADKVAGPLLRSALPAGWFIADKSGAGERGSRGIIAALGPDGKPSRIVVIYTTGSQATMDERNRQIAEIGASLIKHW

Assays:
[1] = Counterscreen for AddAB inhibitors: absorbance-based bacterial cell-based high throughput dose response assay for inhibitors of bacterial viability. [Related pubchem assays (depositor defined):AID435030, AID449728, AID449731, AID488942, AID488955, AID488956]; assay type: functional
[2] = target: T1, E3 ubiquitin-protein ligase XIAP (Homo sapiens, UniProt P98170); experiment: SAR analysis of Antagonists of XIAP-Bir3 domain of IAP-family anti-apoptotic proteins. [Related pubchem assays (depositor defined):AID1018, AID1449, AID1513, AID1514, AID1638]
[3] = target: T1, E3 ubiquitin-protein ligase XIAP; experiment: SAR analysis of Antagonists of IAP-family anti-apoptotic proteins. [Related pubchem assays (depositor defined):AID1018, AID1449, AID1513, AID1514, AID1638]
[4] = target: G-protein coupled receptor 55 (Homo sapiens, UniProt Q9Y2T6); experiment: inhibition of LPI-stimulated GPR55 beta-arrestin translocation – imaging, U2OS, beta-arrestin-GFP, LPI agonist, primary screen (AID 2013); assay type: functional;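 further: antagonist potency measured as reduced agonist-driven arrestin aggregation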
Beta Lactamase = Beta Lactamase (Pseudomonas aeruginosa, UniProt Q932Y6); experiment: BLA reporter interference, concentration series – BLA reporter cells, FRET fluorescence, artefact control for TLR9-MyD88 binding inhibitor project, dose response (AID 588341); assay type: cell-based;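 further: cell based assay in CHO-K1 cells stably expressing beta-lactamase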

Structure (SMILES): CCc1cn([C@H]2C[C@H](O)[C@@H](CO)O2)c(=O)[nH]c1=O [EDOXUDINE]
IC50 [1]: inactive: 18.5 µM and inactive: 14.5 µM

IC50 [2]: inactive: > 100 µM
IC50 [3]: inactive: > 100 µM
Structure (SMILES): CN[C@@H](C)C(=O)N[C@@H](C(=O)N1CCC[C@H]1C(=O)N[C@@H]1CCCc2ccccc21)C(C)C

Structure (SMILES): CN[C@H]1C[C@H]2O[C@@](C)([C@H]1OC)n1c3ccccc3c3c4c(c5c6ccccc6n2c5c31)C(=O)NC4
IC50 [4]: active: 3.18 µM

Structure (SMILES): CCCCNC(=O)COC(=O)c1c2c(nc3ccccc13)/C(=C/c1cccs1)CC2
IC50 (Beta Lactamase): active: 3.32 µM
